The source of these data is patent US20240150476A1 (Chugai, published 2024).

The target in test [1] is T1, IL6R90-G1m/k0 (Homo sapiens (Human), UniProt P01834 1-107). The experiment in a line: BLI (Octet HTX), hsIL-6R-BAP1 on streptavidin sensor, molecule as analyte, 30 C. As to the method:
Next, the IL6R binding evaluation of VHH released by protease treatment was conducted using Octet HTX (Pall ForteBio Corp.). Specifically, hsIL-6R-BAP1 was bound to a streptavidin sensor (Pall ForteBio Corp., 18-5021), and each cleaved IgG antibody-like molecule was allowed to act thereon, followed by binding evaluation at 30° C. As a result, the binding was confirmed in IL6R90H1002/VK1-39-k0MT, IL6R90H1004/VK1-39-k0MT, IL6R90H1005/VK1-39-k0MT, and IL6R90H1006/VK1-39-k0MT. IL6R90-G1m/k0 and IL6R90-G1m/lamL divalently bound with avidity, whereas the released VHH bound with affinity. […] Therefore, its response, binding amount, was lower.
For orientation: In BLI a coated tip is dipped into the sample, and binding shifts an interference pattern.

The target of test [2] is T1, IL6R90-G1m/k0. The experiment in a line: BLI (Octet HTX), molecule captured on Protein A biosensor, hsIL-6R as analyte, 30 C. On the procedure: The hsIL-6R binding evaluation of each molecule was conducted using Octet HTX (Pall ForteBio Corp.). Specifically, each molecule was bound to Biosensor/Protein A (ProA) (Pall ForteBio Corp., 18-5013), and hsIL-6R was allowed to act thereon, followed by binding evaluation at 30° C.

B1: hsIL-6R-BAP1 (receptor)
chain: LAPRRCPAQEVARGVLTSLPGDSVTLTCPGVEPEDNATVHWVLRKPAAGSHPSRWAGMGRRLLLRSVQLHDSGNYSCYRAGRPAGTVHLLVDVPPEEPQLSCFRKSPLSNVVCEWGPRSTPSLTTKAVLLVRKFQNSPAEDFQEPCQYSQESQKFSCQLAVPEGDSSFYIVSMCVASSVGSKFSKTQTFQGCGILQPDPPANITVTAVARNPRWLSVTWQDPHSWNSSFYRLRFELRYRAERSKTFTTWMVKDLQHHCVIHDAWSGLRHVVQLRAQEEFGQGEWSEWSPEAMGTPWTESRSPPAENEVSTPMQALTTNKDDDNILFRDSANATSLPVQGGGGSGLNDIFEAQKIEWHE
modifications: biotin on the C-terminal AviTag sequence (BirA)
notes: also called hsIL-6R-Avitag; biotinylated soluble human IL6R
In the case of B1, the binding result in test [1] is recorded as “binds”.

B2: soluble human IL-6R (receptor)
chain: LAPRRCPAQEVARGVLTSLPGDSVTLTCPGVEPEDNATVHWVLRKPAAGSHPSRWAGMGRRLLLRSVQLHDSGNYSCYRAGRPAGTVHLLVDVPPEEPQLSCFRKSPLSNVVCEWGPRSTPSLTTKAVLLVRKFQNSPAEDFQEPCQYSQESQKFSCQLAVPEGDSSFYIVSMCVASSVGSKFSKTQTFQGCGILQPDPPANITVTAVARNPRWLSVTWQDPHSWNSSFYRLRFELRYRAERSKTFTTWMVKDLQHHCVIHDAWSGLRHVVQLRAQEEFGQGEWSEWSPEAMGTPWTESRSPPAENEVSTPMQALTTNKDDDNILFRDSANATSLPVQ
notes: Expressed in CHO cells and purified from the supernatant; also called hsIL-6R; recombinant human IL6R
In the case of B2, the binding result in test [2] is given as “binds”.
